Test results as given in patent US20080261863A1 (priority 2004, published 2008).
pEC50: −log10 of the molar value.

Tests used:
heart rate in dogs = conditions: intravenously at 0.1 nmol/kg; cited from earlier work
VPAC2 receptor = target: T1, VPAC2 receptor (Homo sapiens, UniProt P41587); experiment: Cyclic AMP SPA in CHO cells expressing VPAC2; format: cell-based; conditions: cAMP SPA
T1 construct: expressed in transfected cells; host or cells: CHO cells under hygromycin and Geneticin selection
T1 sequence (P41587 24-438): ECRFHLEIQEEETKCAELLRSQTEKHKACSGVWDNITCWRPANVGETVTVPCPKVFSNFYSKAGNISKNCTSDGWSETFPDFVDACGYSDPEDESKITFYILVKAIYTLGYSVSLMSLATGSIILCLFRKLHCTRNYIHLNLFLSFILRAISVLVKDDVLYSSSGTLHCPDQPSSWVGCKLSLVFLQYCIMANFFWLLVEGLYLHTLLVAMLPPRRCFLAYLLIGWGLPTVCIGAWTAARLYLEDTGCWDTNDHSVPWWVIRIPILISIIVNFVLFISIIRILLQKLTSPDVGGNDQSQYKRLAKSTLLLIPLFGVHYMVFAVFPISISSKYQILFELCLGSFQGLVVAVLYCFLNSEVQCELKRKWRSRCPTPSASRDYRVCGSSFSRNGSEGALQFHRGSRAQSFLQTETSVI
Description: The media was removed and the plates were washed with PBS. […] The amount of cAMP (in pmol) produced at each concentration of peptide was plotted and analyzed by nonlinear regression using Prizm software to determine the EC50 for each peptide.

[1] = cited from earlier work

Substance: PACAP-27
- effect on heart rate (heart rate in dogs): two-fold
- pEC50 (VPAC2 receptor): 10.05
- half-life in vivo [1]: < 10 min
